From patent US10053462B2, “P2X7 modulators” (Jansssen Pharmaceutica NV, priority 2013, dated 2018)

By UniProt entry, the sequences of proteins in these tests, tags left out. Where a name states a change or a piece, a line headed by the entry shows the natural chain unless it says otherwise.
UniProt Q99572: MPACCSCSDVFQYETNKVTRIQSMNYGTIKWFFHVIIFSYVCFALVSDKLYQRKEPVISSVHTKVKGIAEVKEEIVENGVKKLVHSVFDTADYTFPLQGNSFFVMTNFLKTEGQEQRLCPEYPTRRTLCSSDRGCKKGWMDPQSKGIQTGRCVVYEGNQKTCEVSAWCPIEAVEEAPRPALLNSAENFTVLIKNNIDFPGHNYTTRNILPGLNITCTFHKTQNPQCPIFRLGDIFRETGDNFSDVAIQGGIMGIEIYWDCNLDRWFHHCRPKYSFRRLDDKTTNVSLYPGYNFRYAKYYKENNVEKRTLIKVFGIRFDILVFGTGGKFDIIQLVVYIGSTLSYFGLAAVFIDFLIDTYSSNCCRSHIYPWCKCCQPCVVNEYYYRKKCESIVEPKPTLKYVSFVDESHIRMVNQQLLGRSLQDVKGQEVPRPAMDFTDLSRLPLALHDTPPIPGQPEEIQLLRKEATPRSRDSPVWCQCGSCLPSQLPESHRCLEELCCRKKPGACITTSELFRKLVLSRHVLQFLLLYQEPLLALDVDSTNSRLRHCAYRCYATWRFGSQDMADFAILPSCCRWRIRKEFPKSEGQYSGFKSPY

Molecular target: P2X7 (Homo sapiens (Human), UniProt Q99572)
Experiment: P2X7 antagonism in human peripheral blood mononuclear cells (PBMCs), IL-1β release
Type: cell-based
Details: P2X7, Table 2 (additional runs), 10 μM compound, LPS 30 ng/ml + Bz-ATP 0.5 mM, read-out: PBMC 10 μM (% control)

| Compound | remaining activity at 10 µM [%] |
| --- | --- |
| O=C(c1ccc(F)c(C(F)(F)F)c1Cl)N1[C@H]2CC[C@@H]1c1nnc(-c3ccccn3)n1C2 [Example 43, (6S,9R)-10-{[2-Chloro-4-fluoro-3-(trifluoromethyl)phenyl]carbonyl}-3-pyridin-2-yl-6,7,8,9-tetrahydro-5H-6,9-epimino[1,2,4]triazolo[4,3-a]azepine] | -18.6 |
| O=C(c1cccc(C(F)(F)F)c1Cl)N1[C@H]2CC[C@@H]1c1nnc(-c3ncc(F)cn3)n1C2 [Example 50, (6S,9R)-10-{[2-Chloro-3-(trifluoromethyl)phenyl]carbonyl}-3-(5-fluoropyrimidin-2-yl)-6,7,8,9-tetrahydro-5H-6,9-epimino[1,2,4]triazolo[4,3-a]azepine] | 10.4 |
| O=C(c1cccc(C(F)(F)F)c1Cl)N1[C@H]2CC[C@@H]1c1nnc(-c3ccc[nH]3)n1C2 [Example 62, (6S,9R)-10-{[2-Chloro-3-(trifluoromethyl)phenyl]carbonyl}-3-(1H-pyrrol-2-yl)-6,7,8,9-tetrahydro-5H-6,9-epimino[1,2,4]triazolo[4,3-a]azepine] | 14.1 |
| Cc1nc(-c2nnc3n2C[C@@H]2CC[C@H]3N2C(=O)c2cccc(C(F)(F)F)c2Cl)cs1 [Example 56, (6S,9R)-10-{[2-Chloro-3-(trifluoromethyl)phenyl]carbonyl}-3-(2-methyl-1,3-thiazol-4-yl)-6,7,8,9-tetrahydro-5H-6,9-epimino[1,2,4]triazolo[4,3-a]azepine] | 25.9 |
| O=C(c1cccc(C(F)(F)F)c1Cl)N1[C@H]2CC[C@@H]1c1nnc(-c3cccs3)n1C2 [Example 61, (6S,9R)-10-{[2-Chloro-3-(trifluoromethyl)phenyl]carbonyl}-3-thiophen-2-yl-6,7,8,9-tetrahydro-5H-6,9-epimino[1,2,4]triazolo[4,3-a]azepine] | 11.2 |
| O=C(c1ccc(Cl)cc1Cl)N1[C@H]2CCC[C@@H]1c1nnc(-c3ncc(F)cn3)n1C2 (stereo in doubt) [Example 20, (6S*,10R*)-11-[(2,4-Dichlorophenyl)carbonyl]-3-(5-fluoropyrimidin-2-yl)-5,6,7,8,9,10-hexahydro-6,10-epimino[1,2,4]triazolo[4,3-a]azocine] | 104 |
| O=C(c1cccc(C(F)(F)F)c1Cl)N1[C@H]2CC[C@@H]1c1nnc(-c3cnccn3)n1C2 [Example 42, (6S,9R)-10-{[2-Chloro-3-(trifluoromethyl)phenyl]carbonyl}-3-pyrazin-2-yl-6,7,8,9-tetrahydro-5H-6,9-epimino[1,2,4]triazolo[4,3-a]azepine] | -21.3 |
| O=C(c1cccc(C(F)(F)F)c1Cl)N1[C@@H]2CCC[C@H]1c1nnc(-c3cccnc3)n1C2 (stereo in doubt) [Example 15, (6R*,10S*)-11-{[2-Chloro-3-(trifluoromethyl)phenyl]carbonyl}-3-pyridin-3-yl-5,6,7,8,9,10-hexahydro-6,10-epimino[1,2,4]triazolo[4,3-a]azocine] | 89.8 |
| O=C(c1cccc(C(F)(F)F)c1Cl)N1[C@H]2CCC[C@@H]1c1nnc(-c3ncc(F)cn3)n1C2 (stereo in doubt) [Example 17, (6S*,10R*)-11-{[2-Chloro-3-(trifluoromethyl)phenyl]carbonyl}-3-(5-fluoropyrimidin-2-yl)-5,6,7,8,9,10-hexahydro-6,10-epimino[1,2,4]triazolo[4,3-a]azocine] | 84.2 |
| O=C(c1cccc(C(F)(F)F)c1Cl)N1[C@H]2CC[C@@H]1c1nnc(-c3ccc(Cl)s3)n1C2 [Example 55, (6S,9R)-3-(5-Chlorothiophen-2-yl)-10-{[2-chloro-3-(trifluoromethyl)phenyl]carbonyl}-6,7,8,9-tetrahydro-5H-6,9-epimino[1,2,4]triazolo[4,3-a]azepine] | 15.3 |
